{"source": "patent US20120093806A1", "about": "“ANTITUMOR COMBINATIONS CONTAINING ANTIBODIES RECOGNIZING SPECIFICALLY CD38 AND CYTARABINE” (SANOFI-AVENTIS, priority 2008, published 2012)", "conditions": "days 18, 21, 24, 27", "description": "The animals subjected to the experiment, generally mice, are subcutaneously grafted bilaterally with 30 to 60 mg of a tumor fragment on day 0. The animals bearing tumors are randomized based on their tumor size before being subjected to the various treatments and controls. Chemotherapy begins when tumors have reached a predetermined size after grafting, depending on the type of tumor, and the animals are observed every day. […] The groups are then weighed once or twice a week until the end of the trial.\nThe selected tumor model was a transplantable human T-cell acute lymphoblastic leukemia (T-ALL) cell line, DND-41, implanted in SCID mice.\nHu38SB19 was formulated in phosphate buffer saline, without Ca^2+ and Mg^2+, pH7.4. Hu38SB19 was administered intravenously on days 18, 21, 24, 27 after tumor implantation.", "note": "“And” between values parts separate entries of the source, which are not always exact repeats. Equal entries are not always repeated. Where two headings read alike, the source gives them in different places."}
{"compound": "CCCCCCCCCCCCCCCC(=O)Nc1ccn([C@@H]2O[C@H](CO)[C@@H](O)[C@@H]2O)c(=O)n1", "note": "[Palmo Ara-C]", "values": [{"measurement": "drug death (deaths/mice treated)", "setting": "Palmo Ara-C 22.3 mg/kg/inj SC (total 89.2)", "result": "0/6"}, {"measurement": "drug death (deaths/mice treated)", "setting": "Palmo Ara-C 36.0 mg/kg/inj SC (total 144.0)", "result": "0/6"}, {"measurement": "drug death (deaths/mice treated)", "setting": "Palmo Ara-C 58.0 mg/kg/inj SC (total 232.0)", "result": "0/6"}, {"measurement": "drug death (deaths/mice treated)", "setting": "Palmo Ara-C 96.3 mg/kg/inj SC (total 385.2)", "result": "6 and 6/6"}]}
